The entries are a selection whose mix differs from that of the whole data set. Some salts and complexes are drawn in separate pieces, as the source files them; their charges need not balance. The source made the active and inactive calls. Cut-off read from the data, not from the text of the source: active = activation mostly above about 9.7% (no sharp cut-off); inconclusive = no clear call, values can overlap the other calls; inactive = mostly below about 3.7%.
Assay: induces V. cholerae light production without autoinducers, primary screen, BH1578 luxS cqsA deficient, single point (AID 588436)
Conditions: V. cholerae BH1578 lux reporter, luminescence, 6 h, at 18.7 µM; stronger effect = higher value

Row | Structure (SMILES) | activation
1 | CP(=O)(OC12CC3CC(CC(C3)C1)C2)OC12CC3CC(CC(C3)C1)C2 | inactive: -0.233%
2 | CN(C)C(=O)c1c([N+](=O)[O-])cc([N+](=O)[O-])cc1[N+](=O)[O-] | inactive: -0.153%
3 | CC(C)(C)c1ccc(OP(C)(=O)O)cc1 | inactive: -0.205%
4 | COc1ccccc1OP(C)(=O)Nc1ccccc1Br (stereo not given) | inactive
5 | CP(=O)(Nc1ccc(Cl)cc1)Oc1ccc(F)cc1 (stereo not given) | inactive
6 | O=C(OCCCN1CCCC1)C(O)(c1ccccc1)C1CCCCC1 (stereo not given) | inactive: -0.366%
7 | COc1ccccc1OP(C)(=O)Nc1c(C)n(C)n(-c2ccccc2)c1=O (stereo not given) | inactive: -1.28%
8 | CCc1ccc(OP(C)(=O)Nc2cccnc2)cc1 (stereo not given) | inactive: -3.33%
9 | CP(=O)(Oc1ccccc1)N1CCOC1=O (stereo not given) | inactive
10 | COc1ccc(OP(C)(=O)Nc2ccc(Br)cc2)cc1 (stereo not given) | inactive
11 | CCN(CC)CC(O)COC(=O)C(O)(c1ccccc1)C1CCCCC1 (stereo not given) | inactive: -3.12%
12 | Cc1ccccc1NP(C)(=O)Nc1ccccc1C | inactive: -0.641%
13 | CP(=O)(Nc1ccc2c(c1)OCCO2)Oc1ccccc1 (stereo not given) | inactive
14 | CCOP(C)(=S)SCC(=O)NC(C)(CC)C(=O)O (stereo not given) | inactive: -2.86%
15 | CP(=O)(Nc1ccc(SC(F)(F)F)cc1)Oc1ccc(F)cc1 (stereo not given) | inactive: -0.53%
16 | Cc1c(C(c2ccc3c(c2)OCO3)c2c(C)n(C)n(-c3ccccc3)c2=O)c(=O)n(-c2ccccc2)n1C.O=[N+]([O-])c1cc([N+](=O)[O-])c(O)c([N+](=O)[O-])c1 | inactive
17 | O=[N+]([O-])c1ccc(OP2(=O)COCCO2)cc1 (stereo not given) | inactive: -0.376%
18 | O=[N+]([O-])c1cc([N+](=O)[O-])c(NCC2CCS(=O)(=O)C2)c([N+](=O)[O-])c1 (stereo not given) | inactive: -1.18%

Row | Structure (SMILES) | activation
19 | Cc1cc(-c2cccc3ccccc23)c(C)cn1.O=[N+]([O-])c1cc([N+](=O)[O-])c(O)c([N+](=O)[O-])c1 | inactive: -0.256%
20 | CN(C)CCOC(=O)C(O)(c1ccccc1)C1CCCCC1 (stereo not given) | inactive
21 | COc1ccc(NP(C)(=O)Oc2ccccc2OC)cc1 (stereo not given) | inactive: 0.396%
22 | COc1ccc(OP(C)(=O)Nc2cccc(Br)c2)cc1 (stereo not given) | inactive: 0.406%
23 | CP(=O)(Nc1ccccc1)Oc1ccc(F)cc1 (stereo not given) | inactive
24 | CCCCCOc1ccc(NP(C)(=O)Oc2ccc(Cl)cc2Cl)cc1 (stereo not given) | inactive
25 | O=[N+]([O-])c1cc([N+](=O)[O-])c(OC2CCCCC2O)c([N+](=O)[O-])c1 (stereo not given) | inactive
26 | Cc1c([N+](=O)[O-])cc([N+](=O)[O-])c(Br)c1[N+](=O)[O-] | inactive
27 | CCN(CC)CCCOC(=O)C(O)(c1ccccc1)C1CCCCC1 (stereo not given) | inactive: -0.61%
28 | CCOC(=O)c1ccc(NP(C)(=O)Oc2ccc(F)cc2)cc1 (stereo not given) | inactive: -0.17%
29 | COc1ccc(OP(C)(=O)Nc2ccc(SC(F)(F)F)cc2)cc1 (stereo not given) | inactive: -1.56%
30 | COc1ccc2c(c1O)-c1c(O)c(OC)cc3c1[C@H](C2)[N+](C)(C)CC3.O=[N+]([O-])c1cc([N+](=O)[O-])c([O-])c([N+](=O)[O-])c1[O-] | inactive: 0.61%
31 | O=C(OC1CN2CCC1CC2)c1ccc([N+](=O)[O-])cc1 (stereo not given) | inactive: -0.472%
32 | O=C(OCCN1CCN(CCOCc2ccccc2)CC1)C(O)(c1ccccc1)c1ccccc1 | inactive: -0.247%
33 | CP(=O)(Nc1ccccc1F)Oc1ccccc1 (stereo not given) | inactive
34 | CC(C)c1ccc(OP(C)(=O)Nc2ccc(SC(F)(F)F)cc2)cc1 (stereo not given) | inactive: -0.342%
35 | O=[N+]([O-])c1cc([N+](=O)[O-])c(Nc2ccc(Cl)cc2)c([N+](=O)[O-])c1 | inactive: -5%
